Assay results reported in BindingDB's records for doi:10.1080/14756360802218334 (Cardiff University, 2009).

Target: T1, Cytochrome P450 26A1 (Homo sapiens, UniProt O43174)
T1 sequence (O43174 whole entry): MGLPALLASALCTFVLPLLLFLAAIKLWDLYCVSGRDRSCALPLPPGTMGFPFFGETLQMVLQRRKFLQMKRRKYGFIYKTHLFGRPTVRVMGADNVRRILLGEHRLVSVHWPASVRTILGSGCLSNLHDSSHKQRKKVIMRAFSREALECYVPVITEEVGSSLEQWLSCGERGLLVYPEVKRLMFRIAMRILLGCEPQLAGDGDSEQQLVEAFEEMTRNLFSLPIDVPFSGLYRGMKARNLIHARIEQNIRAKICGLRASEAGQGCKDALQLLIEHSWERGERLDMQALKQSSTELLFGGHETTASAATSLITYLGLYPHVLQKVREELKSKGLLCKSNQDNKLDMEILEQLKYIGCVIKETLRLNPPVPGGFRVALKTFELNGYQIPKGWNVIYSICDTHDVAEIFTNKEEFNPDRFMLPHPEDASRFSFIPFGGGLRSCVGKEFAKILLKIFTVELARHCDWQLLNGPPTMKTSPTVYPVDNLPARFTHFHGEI
Assay: Cell Assay
Protocol: The imidazole derivatives were evaluated for their retinoic acid metabolism inhibitory activity using a MCF-7 cell assay, using radiolabelled all-trans retinoic acid as the substrate and liarozole and R115866 as standards for comparison.

IC50: 7 µM
Structure (SMILES): Clc1cccc(C(c2ccc3[nH]cnc3c2)n2ccnc2)c1 (stereo unspecified) [6-((3-chlorophenyl)(1H-imidazol-1-yl)methyl)-1H-benzo[d]imidazole]
